Measured values as given in US20080311126A1, “Antisense Oligonucleotides Directed to Ribonucleotide Reducatase R2 and Uses Thereof in Combination Therapies for the Treatment of Cancer” (Genesense Technologies, Inc, priority 2004, published 2008).

System: Caki-1 human renal carcinoma
Experiment: Caki-1 renal tumour xenograft in SCID mice, SEQ ID NO:1 and interleukin-2
Assay type: in vivo
Conditions: Example 10; SEQ ID NO:1 10 mg/kg/48 hours i.v.; IL2 20000 or 5000 unit 2 times per day i.p.
Procedure: Cell line: Human renal carcinoma cell line (Caki-1) was grown as monolayer culture in Minimum essential medium (α-MEM) supplemented with 10% fetal bovine serum (FBS), 0.1 mM non-essential amino acid, 1.0 mM sodium pyruvate, 100 U/ml penicillin, 100 μg/ml streptomycin and 0.25 μg/ml amphotericin B and 2 mM L-alanyl-1-glutamine at 37° C. in an atmosphere of 5% CO2 in air. The tumour cells were routinely subcultured twice weekly by trypsin-EDTA treatment. The cells were harvested from subconfluent logarithmically growing culture by treatment with trypsin-EDTA and counted for tumour inoculation. […]
Groups and treatments: The following treatments were evaluated in this experiment: • 1. […]
Endpoints: The anti-tumour effects of SEQ ID NO:1 and IL-2, a standard immunotherapeutic for renal carcinoma, alone or in combination, on tmnour growth, was determined. Tumour sizes were measured every week day from day 7 after the tumour cell inoculation in two dimensions using a caliper, and the volume was expressed in mm^3 using the formula: V=0.5 a×b^2, where a and b are the long and short diameters of the tumour, respectively. Mean tumour volumes calculated from each measurement were then plotted in a standard graph to compare the anti-tumour efficacy to that of controls. A day after the last treatment, tumours were excised from the animals and their weights were measured.

interleukin-2 [IL-2]
anti-tumour efficacy (tumour volume, tumour weight): anti-tumour efficacy as monotherapies
